# AlphaSeq binding of Ab-14 light chain variants to a spike HR2 peptide

The measurements come from Li et al. 2023 (doi:10.1038/s41467-023-39022-2) through the FLAb antibody collection.

All variants were tested on one target, the spike HR2 peptide PDVDLGDISGINAS (SARS-CoV-2).

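Phage display of a naive human antibody library on the peptide gave the parent. The variants were designed computationally from a first round of random CDR variants and then made and measured. Several design methods are mixed in this list. Affinity was read by AlphaSeq, a pooled yeast mating assay with surface-displayed partners. Mating (16 h, 30 °C) was followed by selection of diploids and sequencing of their barcodes. Read counts were normalised to the haploid input and turned into Kd by a linear fit to BCL2-family pairs of known affinity, for each replicate. There are six technical replicates.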

Each scFv is VH, three GGGGS repeats, VL, as in the parent Ab-14, and differs from it in the CDRs of the light chain only.
VH: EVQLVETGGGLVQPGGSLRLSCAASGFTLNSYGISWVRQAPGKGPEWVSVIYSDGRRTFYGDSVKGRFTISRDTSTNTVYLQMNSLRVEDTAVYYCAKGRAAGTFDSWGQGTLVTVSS
VL: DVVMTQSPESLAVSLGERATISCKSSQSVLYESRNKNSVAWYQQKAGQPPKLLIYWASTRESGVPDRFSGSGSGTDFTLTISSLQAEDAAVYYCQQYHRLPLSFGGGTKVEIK

Each variant is given by its three light chain CDRs, as the data file delimits them; those of the parent are KSSQSVLYESRNKNSVA, WASTRES, QQYHRLPLS. This list holds designs with more than six substitutions. Values are log10 of the apparent Kd in nM; lower means stronger binding. Averages over replicates are reported, and they cover detected replicates only. "ND" marks a missing value. The strain was present, yet no cells mated with the target were sequenced in that replicate, which points to weak or no binding. Empty control strains, which show no peptide, gave a signal in 4% of pairings with all light chain designs; the median was 2.64 and 95% of these signals were weaker than 1.59. No background was subtracted. A sequence measured in both rounds can read differently, since the two assays cover different ranges. The authors averaged sequences with at least three values out of six and counted those with two or fewer as poor binders. Of ten entries with the parent sequence, four were seen in most replicates (averages 0.34 to 2.37), three in one and three in none, so single entries are noisy.

CDR-L1,CDR-L2,CDR-L3,log10 Kd (nM) by replicate,"log10 Kd (nM), mean"
KISGSYLGLSRNWNAVA,HASTREQ,QQYHRLPLS,0.66 / 0.80 / 0.86 / 0.55 / 0.79 / 0.95,0.77
MMSQVTGMETRQRNNVA,QTSTREA,QQYDRLPLI,0.66 / 0.60 / 0.49 / 0.59 / 0.52 / 0.44,0.55
KLQQSVEYESRNKNNVA,EGSQRES,QQYHRLPLS,0.11 / 0.11 / 0.10 / 0.17 / 0.08 / 0.42,0.17
KLDQSGLYGSRNKNSVA,EASERES,QQYHRLPLY,0.26 / 0.08 / -0.18 / 0.18 / -0.01 / 0.23,0.09
KQQSSVMMGSRNKNSVA,SASKRES,QQYHRLPLS,0.78 / 0.84 / 0.50 / 0.78 / 1.01 / 1.00,0.82
KLMTSDLYESRNVNSVA,EASTRMD,QQYHRLPLS,0.16 / 0.07 / -0.09 / -0.03 / -0.14 / 0.11,0.01
KFQIGPNQGHSMEHNIA,EGTYAEE,QQYARLPLQ,1.27 / 1.35 / 0.85 / 0.79 / 1.45 / 0.85,1.09
KMVKWESEGDRHAANIA,NANKITD,QQYYRLPLA,1.07 / 0.95 / 1.35 / 1.16 / 1.27 / 1.52,1.22
MMSQVTGLGQRQRNNVA,QTSTREP,QQYDRLPLI,0.54 / 0.75 / 0.46 / 0.20 / 0.75 / 0.74,0.57
HMKDELGLGPQTYYSVA,HGSMREP,QDYYRLPLG,1.01 / 1.42 / 1.36 / 1.51 / 1.22 / 1.50,1.34
QFHQGMIGDQRNMHSVA,NAQAAVP,QYYFRLPLT,-0.62 / -1.17 / -0.40 / -0.84 / -0.97 / -1.11,-0.85
KLSWSVQYDSRNKNSVA,WASTRES,QQYHMEPLW,ND / ND / ND / ND / ND / ND,ND
MMSQVYGLGQRHRNNVA,QTSMREN,QQYDRLPLI,1.27 / 1.13 / 1.70 / 1.03 / 2.44 / 1.10,1.45
QFDTNLHYMGANKNSVA,EMTEKTT,QQYHRLPIE,1.92 / 1.97 / 1.55 / 2.95 / 1.64 / 2.24,2.04
KCQQSQDYESRNKNAVA,NASLRED,QQYHRLPLS,0.22 / -0.28 / -0.02 / -0.20 / -0.09 / 0.08,-0.05
MMSMGYLGGMRAKNNVA,QEETREK,QQYHRLPLI,2.30 / 1.92 / 1.50 / 3.13 / ND / 1.51,2.07
KSGQQFLQEQRNKNSVA,DASLRES,QQYHRLPLS,0.59 / -0.14 / -0.62 / 0.79 / 0.04 / -0.07,0.10
TLSQLMDMTSRNVNSVA,DLTTRGN,QQYHRLPLS,0.59 / 0.52 / 0.34 / 0.50 / 0.92 / 0.62,0.58
HITMGMYVKGRHHSSIA,QAETRAM,QQYDRLPLI,1.47 / 1.40 / 2.35 / 1.18 / 2.34 / 1.28,1.67
MVSQLMVWGMHAKNSIA,EAQTRLN,QQYDRLPLF,ND / ND / ND / ND / ND / ND,ND
KVQQSVLYGDRNKNSVA,HASTRSS,QDYHRLPLS,0.93 / 0.10 / -0.57 / 0.39 / 0.75 / -0.30,0.22
MVYESMDQALRTHNSIA,DNQTRES,QQYDRLPLS,1.87 / 1.70 / 1.39 / 1.94 / 1.64 / 1.66,1.70
KIGQQVTYESTNKNAIA,QMTTREE,QQYHRLPLS,0.45 / 0.04 / 0.20 / 0.18 / 0.23 / 0.19,0.22
QTDSFYQHGDDQNQAMA,DVTMRDQ,QQYSRLPLS,0.32 / 0.73 / 0.43 / 0.24 / 0.51 / 0.53,0.46
KYPQSEGYESRNQNSVA,MASQREE,QQYHRLPLS,0.16 / 0.04 / 0.07 / -0.21 / -0.11 / 0.07,0.00
RYQMDDQEGKTARNNIA,DGAEVYR,QQYARLPLT,ND / ND / ND / ND / ND / ND,ND
HMSALTLQGMRLRNSVA,QMTTREN,QQYDRLPLS,0.74 / 0.65 / 1.12 / 1.01 / 1.20 / 1.00,0.95
MFPQEVMYEQHFKNNVA,QTSTREP,QQYDMLPLS,1.08 / 0.78 / 1.01 / 0.55 / 0.59 / 1.03,0.84
MLSMVTEGMVRKHDSVA,DNSTRED,QQYDRLPLS,ND / 1.32 / 1.78 / 0.64 / 0.96 / 1.42,1.22
NIQNLGMENSVWKNSIA,DVNILEI,QQYWRLPLL,0.67 / 0.92 / 0.78 / 1.16 / 0.91 / 0.30,0.79
SMETHSQDRRLDWSAVA,EAHTIYQ,QQYARLPLS,ND / ND / ND / ND / ND / ND,ND
NFSQMVSTGMTLRNSVA,HASTRFN,QQYHRLPLI,0.91 / 0.85 / 0.96 / 1.90 / 1.15 / 2.01,1.30
HISSMDMHDGGIIHNVA,DTGVTSR,QQYARLPLI,0.64 / 1.10 / 0.48 / 0.48 / 0.81 / 0.68,0.70
TISQMTSAFSMSINNVA,EVSTREE,QQYDRLPLA,ND / ND / ND / ND / ND / ND,ND
RVTNELGKEMERKQSVA,ETDQRCM,QQYARLPLI,0.69 / 0.47 / 0.43 / 0.50 / 0.18 / 0.58,0.47
KLTHLSFVLDRQKASVA,DSERKAE,QQYNRLPLT,0.83 / 0.69 / 0.47 / 0.35 / 0.67 / 0.48,0.58
TLQQSWEYESRNKNSVA,NGSQRED,QQYHRLPLS,-0.21 / -0.37 / -0.28 / -0.39 / -0.31 / -0.31,-0.31
KLSQQWEYESRNSNNVA,AASTRED,QQYHRLPLS,-0.27 / -0.29 / -0.59 / -0.64 / -0.33 / -0.42,-0.42
KLSQFYRMESRNKNSVA,DNSTRER,QQYDRLPLS,0.91 / 0.95 / 0.80 / 0.69 / 0.82 / 0.98,0.86
KLRQVMHIESFNKNNVA,EMTTRES,QSYDRLPLS,ND / 1.87 / ND / ND / 2.45 / ND,2.16
KLGQESYNSTYAMDAVA,DQNTAYE,QHYSRLPLT,ND / 2.59 / ND / ND / 2.53 / 2.48,2.53
KLSMITGHQLMAKNNVA,EMVTREN,QQYNRLPLS,2.20 / 1.45 / 0.96 / 0.90 / 1.30 / 1.39,1.37

Excerpt, the first 2 entries:

| CDR-L1 | CDR-L2 | CDR-L3 | log10 Kd (nM) by replicate | log10 Kd (nM), mean |
|---|---|---|---|---|
| KISGSYLGLSRNWNAVA | HASTREQ | QQYHRLPLS | 0.66 / 0.80 / 0.86 / 0.55 / 0.79 / 0.95 | 0.77 |
| MMSQVTGMETRQRNNVA | QTSTREA | QQYDRLPLI | 0.66 / 0.60 / 0.49 / 0.59 / 0.52 / 0.44 | 0.55 |